Laboratory results as given in patent US20230114241A1, “METHODS OF TREATING EPILEPSY USING THE SAME” (Trevena, Inc., priority 2019, published 2023).

Amino acid sequences for entries named in this document (tags omitted).
UniProt P21453, whole entry: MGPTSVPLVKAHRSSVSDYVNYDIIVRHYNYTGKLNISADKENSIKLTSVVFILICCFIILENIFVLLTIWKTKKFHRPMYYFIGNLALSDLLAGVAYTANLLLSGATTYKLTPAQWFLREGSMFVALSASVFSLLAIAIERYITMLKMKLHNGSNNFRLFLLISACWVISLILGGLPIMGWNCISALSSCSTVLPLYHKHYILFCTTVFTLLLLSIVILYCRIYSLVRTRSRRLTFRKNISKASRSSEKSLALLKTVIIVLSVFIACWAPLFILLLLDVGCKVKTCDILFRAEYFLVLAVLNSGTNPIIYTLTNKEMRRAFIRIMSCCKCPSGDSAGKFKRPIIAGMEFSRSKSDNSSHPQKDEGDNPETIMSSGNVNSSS
UniProt P32121, whole entry partner: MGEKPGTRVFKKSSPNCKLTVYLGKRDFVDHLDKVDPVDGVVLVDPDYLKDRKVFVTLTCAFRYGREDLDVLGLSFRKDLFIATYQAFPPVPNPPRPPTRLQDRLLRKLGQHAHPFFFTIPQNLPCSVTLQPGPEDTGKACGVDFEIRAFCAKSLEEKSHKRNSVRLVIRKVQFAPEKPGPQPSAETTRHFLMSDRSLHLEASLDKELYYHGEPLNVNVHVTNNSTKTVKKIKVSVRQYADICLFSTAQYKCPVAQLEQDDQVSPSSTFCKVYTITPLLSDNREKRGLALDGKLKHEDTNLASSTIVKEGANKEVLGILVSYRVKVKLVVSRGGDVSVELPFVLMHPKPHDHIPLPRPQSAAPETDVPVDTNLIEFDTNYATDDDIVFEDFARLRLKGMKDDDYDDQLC

How the values were obtained:
[1] = target: T1, human sphingosine-1-phosphate receptor 1 (S1P1) (Homo sapiens, UniProt P21453); assay: Inhibition of cAMP production (HTRF cAMP HiRange), S1P1 CHO-K1 cells; conditions: for hS1P1 CAMP SPAN: efficacy normalized to maximum efficacy of fingolimod
[2] = target: T1, human sphingosine-1-phosphate receptor 1 (S1P1); assay: β-Arrestin2 recruitment assay (PathHunter), S1P1 CHO-K1 cells; conditions: for hS1P1 B-arrestin2 SPAN: efficacy normalized to maximum efficacy of fingolimod

hS1P1 CAMP SPAN ([1]; inhibition of cAMP production) | hS1P1 CAMP pEC50 ([1]; inhibition of cAMP production, potency) | hS1P1 B-arrestin2 SPAN ([2]; β-arrestin2 recruitment) | hS1P1 B-arrestin2 pEC50 ([2]; β-arrestin2 recruitment, potency) | hS1P1 CAMP SPAN [1] | hS1P1 CAMP pEC50 ([1]; inhibition of cAMP production, S1P1) | hS1P1 B-arrestin2 SPAN [2] | hS1P1 B-arrestin2 pEC50 ([2]; β-arrestin2 recruitment, S1P1) | Compound
<75 | <6.5 | <75 | <5 | – | – | – | – | CC(C)n1nnc2cc(-c3ncc(-c4ccccc4C(F)(F)F)s3)ccc21
– | – | – | – | >75 | <6.5 | <75 | <5 | CC(C)n1ccc2cc(-c3nc(-c4ccccc4C(F)(F)F)cs3)ccc21
